The chains behind the UniProt entries cited, without tags or fusion partners.
UniProt O60674, whole entry: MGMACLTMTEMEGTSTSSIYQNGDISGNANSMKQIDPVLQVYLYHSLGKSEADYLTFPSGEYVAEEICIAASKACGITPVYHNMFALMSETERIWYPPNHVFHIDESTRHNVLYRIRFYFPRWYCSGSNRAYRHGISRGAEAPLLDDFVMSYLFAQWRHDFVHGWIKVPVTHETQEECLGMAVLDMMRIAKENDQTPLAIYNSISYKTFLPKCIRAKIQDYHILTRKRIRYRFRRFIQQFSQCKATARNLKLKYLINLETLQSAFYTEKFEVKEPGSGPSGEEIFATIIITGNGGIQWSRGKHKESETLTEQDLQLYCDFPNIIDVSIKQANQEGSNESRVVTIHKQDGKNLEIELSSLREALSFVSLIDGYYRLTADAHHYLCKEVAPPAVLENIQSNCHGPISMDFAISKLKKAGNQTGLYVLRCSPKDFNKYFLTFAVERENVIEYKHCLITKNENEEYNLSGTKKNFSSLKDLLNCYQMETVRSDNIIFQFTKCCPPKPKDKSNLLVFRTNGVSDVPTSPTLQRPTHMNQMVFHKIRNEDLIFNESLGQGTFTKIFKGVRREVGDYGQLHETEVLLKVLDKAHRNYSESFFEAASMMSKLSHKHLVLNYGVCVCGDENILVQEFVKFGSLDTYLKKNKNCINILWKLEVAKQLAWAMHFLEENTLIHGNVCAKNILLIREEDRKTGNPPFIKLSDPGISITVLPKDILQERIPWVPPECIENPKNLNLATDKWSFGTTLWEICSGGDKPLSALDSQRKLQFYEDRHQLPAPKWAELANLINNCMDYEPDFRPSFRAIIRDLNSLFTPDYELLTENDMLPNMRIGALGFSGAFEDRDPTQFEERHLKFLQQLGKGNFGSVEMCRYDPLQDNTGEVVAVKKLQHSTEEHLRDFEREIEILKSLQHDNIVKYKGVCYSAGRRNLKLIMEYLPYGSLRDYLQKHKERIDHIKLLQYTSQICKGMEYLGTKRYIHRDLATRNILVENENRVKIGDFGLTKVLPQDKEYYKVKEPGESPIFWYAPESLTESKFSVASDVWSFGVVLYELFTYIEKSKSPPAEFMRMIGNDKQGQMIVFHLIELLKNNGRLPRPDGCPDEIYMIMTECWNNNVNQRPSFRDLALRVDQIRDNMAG
UniProt P52333, whole entry: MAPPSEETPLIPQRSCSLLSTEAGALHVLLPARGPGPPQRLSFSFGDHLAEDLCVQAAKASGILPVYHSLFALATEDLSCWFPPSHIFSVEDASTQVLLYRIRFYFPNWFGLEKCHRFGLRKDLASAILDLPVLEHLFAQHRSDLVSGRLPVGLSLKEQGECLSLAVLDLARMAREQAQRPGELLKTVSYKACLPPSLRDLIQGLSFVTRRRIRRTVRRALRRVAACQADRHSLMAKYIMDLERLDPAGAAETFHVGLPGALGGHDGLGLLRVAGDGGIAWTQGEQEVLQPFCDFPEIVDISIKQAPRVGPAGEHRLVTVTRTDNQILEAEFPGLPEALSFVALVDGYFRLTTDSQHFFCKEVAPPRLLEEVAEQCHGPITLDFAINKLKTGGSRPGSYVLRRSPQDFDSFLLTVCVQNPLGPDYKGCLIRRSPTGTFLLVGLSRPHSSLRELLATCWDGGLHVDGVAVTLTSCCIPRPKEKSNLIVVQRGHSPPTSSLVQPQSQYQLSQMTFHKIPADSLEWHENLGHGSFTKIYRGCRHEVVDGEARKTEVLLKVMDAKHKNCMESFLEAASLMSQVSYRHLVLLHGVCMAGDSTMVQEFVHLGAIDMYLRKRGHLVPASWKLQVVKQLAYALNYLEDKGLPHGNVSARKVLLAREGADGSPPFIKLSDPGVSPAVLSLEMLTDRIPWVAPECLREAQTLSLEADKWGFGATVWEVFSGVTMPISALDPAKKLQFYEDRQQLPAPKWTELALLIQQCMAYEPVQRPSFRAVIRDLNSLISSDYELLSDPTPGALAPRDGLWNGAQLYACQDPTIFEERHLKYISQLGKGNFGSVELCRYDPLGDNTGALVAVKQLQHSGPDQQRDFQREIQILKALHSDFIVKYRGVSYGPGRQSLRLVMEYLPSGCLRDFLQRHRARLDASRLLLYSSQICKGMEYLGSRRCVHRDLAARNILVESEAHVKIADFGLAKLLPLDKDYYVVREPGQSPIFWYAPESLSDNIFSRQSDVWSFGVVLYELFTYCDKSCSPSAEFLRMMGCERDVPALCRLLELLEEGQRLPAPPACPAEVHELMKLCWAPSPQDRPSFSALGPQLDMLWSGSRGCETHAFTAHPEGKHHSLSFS

According to patent US7329652B2, “Diaminotriazole compounds useful as protein kinase inhibitors” (Vertex Pharamaceuticals Incorporated, priority 2004, dated 2008):

Key:
JAK-2 enzyme = JAK-2 enzyme (Homo sapiens, UniProt O60674); test: JAK2 inhibition assay (radiometric 33P filter assay); assay type: biochemical; details: read-out: JAK2 inhibition data (Ki); 15 μM poly(Glu)4Tyr, 12 μM ATP
Procedure: (§1) Compounds were screened for their ability to inhibit JAK using the assay shown below. Reactions were carried out in a kinase buffer containing 100 mM HEPES (pH 7.4), 1 mM DTT, 10 mM MgCl2, 25 mM NaCl, and 0.01% BSA.
(§2) Substrate concentrations in the assay were 5 μM ATP (200 uCi/μmole ATP) and 1 μM poly(Glu)4Tyr. Reactions were carried out at 25° C. and 1 nM JAK3.
(§3) To each well of a 96 well polycarbonate plate was added 1.5 μl of a candidate JAK3 inhibitor along with 50 μl of kinase buffer containing 2 μM poly(Glu)4Tyr and 10 μM ATP. This was then mixed and 50 μl of kinase buffer containing 2 nM JAK3 enzyme was added to start the reaction. After 20 minutes at room temperature (25° C.), the reaction was stopped with 50 μl of 20% trichloroacetic acid (TCA) that also contained 0.4 mM ATP. The entire contents of each well were then transferred to a 96 well glass fiber filter plate using a TomTek Cell Harvester. After washing, 60 μl of scintillation fluid was added and ^33P incorporation detected on a Perkin Elmer TopCount.
The assays were as described above in Example 25 except that JAK-2 enzyme was used, the final poly(Glu)4Tyr concentration was 15 μM, and final ATP concentration was 12 μM.

JAK3 = JAK3 (Homo sapiens, UniProt P52333); test: JAK3 inhibition assay (radiometric 33P filter assay); assay type: biochemical; details: read-out: JAK3 inhibition data (Ki); 1 μM poly(Glu)4Tyr, 5 μM ATP, 1 nM JAK3, 25° C.
Procedure: as §1, §2, §3

pKi (JAK-2 enzyme): 6.30 to 7.30
pKi (JAK3): > 7.30
Structure (SMILES): CC(=O)N1CCCN(c2cc(-n3nc(Nc4ccc(NC(=O)OC(C)C)cc4)nc3N)ccn2)CC1

pKi: −log10 of the molar value.
